# From patent publication US9890152B2 (Genentech, Inc., priority 2012, dated 2018)
# Chains of the proteins cited; added tags and fusions are not shown. Residues count along the entry.
# UniProt P00533, 25-1210 T790M/L858R limits assumed: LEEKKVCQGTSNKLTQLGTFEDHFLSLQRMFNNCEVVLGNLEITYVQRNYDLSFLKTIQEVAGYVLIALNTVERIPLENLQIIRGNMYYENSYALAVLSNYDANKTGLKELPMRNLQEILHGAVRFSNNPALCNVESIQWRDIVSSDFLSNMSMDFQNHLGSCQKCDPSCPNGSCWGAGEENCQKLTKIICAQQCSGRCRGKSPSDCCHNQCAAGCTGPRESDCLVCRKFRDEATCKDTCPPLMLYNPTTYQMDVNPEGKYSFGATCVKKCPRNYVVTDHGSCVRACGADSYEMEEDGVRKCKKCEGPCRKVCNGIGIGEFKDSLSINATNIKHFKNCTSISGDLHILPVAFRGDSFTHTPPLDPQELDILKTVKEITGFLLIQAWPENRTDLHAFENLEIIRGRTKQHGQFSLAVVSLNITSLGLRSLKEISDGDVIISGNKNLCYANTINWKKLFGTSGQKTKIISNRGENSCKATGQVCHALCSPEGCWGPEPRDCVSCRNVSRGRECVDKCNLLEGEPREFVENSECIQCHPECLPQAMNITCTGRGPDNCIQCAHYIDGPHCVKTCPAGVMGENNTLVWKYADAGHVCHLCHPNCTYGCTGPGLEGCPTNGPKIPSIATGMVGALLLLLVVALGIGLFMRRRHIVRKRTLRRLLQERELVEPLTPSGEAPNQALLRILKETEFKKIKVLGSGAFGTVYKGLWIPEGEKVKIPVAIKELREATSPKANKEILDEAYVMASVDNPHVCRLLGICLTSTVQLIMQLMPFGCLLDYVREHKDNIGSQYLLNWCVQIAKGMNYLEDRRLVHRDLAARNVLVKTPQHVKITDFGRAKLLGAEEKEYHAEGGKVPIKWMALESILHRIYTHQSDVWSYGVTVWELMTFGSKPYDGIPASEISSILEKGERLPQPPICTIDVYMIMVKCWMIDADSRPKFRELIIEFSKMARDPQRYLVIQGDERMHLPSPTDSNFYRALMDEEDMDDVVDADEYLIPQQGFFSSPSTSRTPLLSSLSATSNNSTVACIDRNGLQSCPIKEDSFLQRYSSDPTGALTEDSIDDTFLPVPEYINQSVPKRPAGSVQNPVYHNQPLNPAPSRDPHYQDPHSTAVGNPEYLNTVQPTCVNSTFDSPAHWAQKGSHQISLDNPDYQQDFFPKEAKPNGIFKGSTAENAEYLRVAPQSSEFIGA
# Counter-ions that a name gives are not always drawn.
# Biological target: EGFR T790M L858R (Homo sapiens, UniProt P00533, L858R/T790M)
# Assay: biochemical
# Conditions: EGFR(T790M/L858R) Ki (μM), 5 μM ATP, 30 min, room temperature; apparent Ki (Morrison) converted by Cheng-Prusoff, Km of ATP 1.3 μM
row,Structure (SMILES),Ki [µM]
1,"C[C@H](n1c(CO)nc2cnc(Nc3ccnc(N4CC[C@H](O)[C@H](F)C4)n3)cc21)C(C)(F)F (racemic) [Example 644, (±)-(cis)-1-(4-(1-((S)-3,3-Difluorobutan-2-yl)-2-(hydroxymethyl)-1H-imidazo[4,5-c]pyridin-6-ylamino)pyrimidin-2-yl)-3-fluoropiperidin-4-ol]",0.00165
2,"CC(C)n1c(CO)nc2cnc(Nc3ccnc(N4CC[C@H](O)[C@](C)(F)C4)n3)cc21 (racemic) [Example 645, (3RS,4SR)-3-Fluoro-1-(4-((2-(hydroxymethyl)-1-isopropyl-1H-imidazo[4,5-c]pyridin-6-yl)amino)pyrimidin-2-yl)-3-methylpiperidin-4-ol]",0.0178
3,"CCC(C)n1cc(C(=O)NC2CCOCC2)c2cnc(Nc3ccnc(N4C[C@@H](F)[C@@H](O)C(C)(C)C4)n3)cc21 (mixture of isomers) [Example 646, 1-sec-Butyl-6-(2-((±)-cis-5-fluoro-4-hydroxy-3,3-dimethylpiperidin-1-yl)pyrimidin-4-ylamino)-N-(tetrahydro-2H-pyran-4-yl)-1H-pyrrolo[3,2-c]pyridine-3-carboxamide]",0.00232
4,"CO[C@@H]1CCN(c2nccc(Nc3cc4c(cn3)nc(C)n4C(C)C)n2)C[C@H]1NS(C)(=O)=O (relative stereo) [Example 266, (trans)-N-{1-[4-(1-Isopropyl-2-methyl-1H-imidazo[4,5-c]pyridin-6-ylamino)pyrimidin-2-yl]-4-methoxypiperidin-3-yl}methanesulfonamide formate salt]",0.275
5,"CO[C@@H]1CCN(c2nccc(Nc3cc4c(cn3)nc(C)n4C(C)C)n2)C[C@H]1N (relative stereo) [Example 267, (trans)-[2-(3-Amino-4-methoxypiperidin-1-yl)pyrimidin-4-yl]-(1-isopropyl-2-methyl-1H-imidazo[4,5-c]pyridin-6-yl)amine]",0.193
6,"COC1CCN(c2nccc(Nc3cc4c(cn3)nc(C)n4[C@@H]3CC[C@H](C#N)C3)n2)CC1 (relative stereo) [Example 350, (cis)-3-(6-((2-(4-methoxypiperidin-1-yl)pyrimidin-4-yl)amino)-2-methyl-1H-imidazo[4,5-c]pyridin-1-yl)cyclopentanecarbonitrile]",0.269
7,"COC1CCN(c2nccc(Nc3cc4c(cn3)nc(C)n4[C@H]3CC[C@H](C#N)C3)n2)CC1 (relative stereo) [Example 351, (trans)-3-(6-((2-(4-methoxypiperidin-1-yl)pyrimidin-4-yl)amino)-2-methyl-1H-imidazo[4,5-c]pyridin-1-yl)cyclopentanecarbonitrile]",0.114
8,"CC(C)n1c(CO)nc2cnc(Nc3ccnc(N4CC[C@H]([S+](C)[O-])[C@H](F)C4)n3)cc21 (relative stereo) [Example 623, {6-[2-(cis-3-Fluoro-4-methanesulfinylpiperidin-1-yl)pyrimidin-4-ylamino]-1-isopropyl-1H-imidazo[4,5-c]pyridin-2-yl}methanol]",0.0465
9,"CCC(C)n1cnc2cnc(Nc3ccnc(N4CCC(OC)CC4)n3)cc21 (single isomer, unassigned) [Example 32, ((R) or (S) 1-sec-Butyl-1H-imidazo[4,5-c]pyridin-6-yl)-[2-(4-methoxypiperidin-1-yl)pyrimidin-4-yl]amine]",0.0194
10,"CCC(C)n1cnc2cnc(Nc3ccnc(N4CCC(OC)CC4)n3)cc21 (single isomer, unassigned) [Example 33, ((R) or (S) 1-sec-Butyl-1H-imidazo[4,5-c]pyridin-6-yl)-[2-(4-methoxypiperidin-1-yl)pyrimidin-4-yl]amine]",0.0225
11,"CC(C)n1cnc2cnc(Nc3ccnc(N4CCC5(CCOC5)C4)n3)cc21 (single isomer, unassigned) [Example 36, (R or S)—N-(2-(2-oxa-7-azaspiro[4.4]nonan-7-yl)pyrimidin-4-yl)-1-isopropyl-1H-imidazo[4,5-c]pyridin-6-amine]",0.323
12,"CC(C)n1cnc2cnc(Nc3ccnc(N4CCC5(CCOC5)C4)n3)cc21 (single isomer, unassigned) [Example 37, (R or S)—N-(2-(2-Oxa-7-azaspiro[4.4]nonan-7-yl)pyrimidin-4-yl)-1-isopropyl-1H-imidazo[4,5-c]pyridin-6-amine]",0.183
13,"Cc1nc2cnc(Nc3ccnc(NC4CCS(=O)(=O)C4)n3)cc2n1C(C)C (single isomer, unassigned) [Example 50, 3-((4-((1-Isopropyl-2-methyl-1H-imidazo[4,5-c]pyridin-6-yl)amino)pyrimidin-2-yl)amino)tetrahydrothiophene 1,1-dioxide]",0.0314
14,"CC(C)n1cnc2cnc(Nc3ccnc(N4CCC5(CCCO5)C4)n3)cc21 (single isomer, unassigned) [Example 101, N-(2-(1-oxa-7-azaspiro[4.4]nonan-7-yl)pyrimidin-4-yl)-1-isopropyl-1H-imidazo[4,5-c]pyridin-6-amine]",0.489
15,"CC(C)n1cnc2cnc(Nc3ccnc(N4CCC5(CCCO5)C4)n3)cc21 (single isomer, unassigned) [Example 102, N-(2-(1-oxa-7-azaspiro[4.4]nonan-7-yl)pyrimidin-4-yl)-1-isopropyl-1H-imidazo[4,5-c]pyridin-6-amine]",0.255
16,"CC(C)n1cnc2cnc(Nc3ccnc(N4CCC(S(C)(=O)=O)C4)n3)cc21 (single isomer, unassigned) [Example 104, 1-isopropyl-N-(2-(3-(methylsulfonyl)pyrrolidin-1-yl)pyrimidin-4-yl)-1H-imidazo[4,5-c]pyridin-6-amine]",0.207
17,"CC(C)n1cnc2cnc(Nc3ccnc(N4CCC(S(C)(=O)=O)C4)n3)cc21 (single isomer, unassigned) [Example 105, 1-isopropyl-N-(2-(3-(methylsulfonyl)pyrrolidin-1-yl)pyrimidin-4-yl)-1H-imidazo[4,5-c]pyridin-6-amine]",0.311

row,Structure (SMILES),Ki [µM]
1,"CC(C)n1cnc2cnc(Nc3ccnc(NC4CCS(=O)(=O)C4)n3)cc21 (single isomer, unassigned) [Example 109, 3-((4-((1-isopropyl-1H-imidazo[4,5-c]pyridin-6-yl)amino)pyrimidin-2-yl)amino)tetrahydrothiophene 1,1-dioxide]",0.637
2,"CCC(C)n1cc(C(=O)NC2CCOCC2)c2cnc(Nc3ccnc(N4CC[C@@H](O)[C@@H](F)C4)n3)cc21 (single isomer, unassigned) [Example 323]",0.00115
3,"CCC(C)n1cc(C(=O)NC2CCOCC2)c2cnc(Nc3ccnc(N4CC[C@@H](O)[C@@H](F)C4)n3)cc21 (single isomer, unassigned) [Example 324]",0.00101
4,"CCC(C)n1cc(C(=O)NC2CCN(C3COC3)CC2)c2cnc(Nc3ccnc(N4CC[C@@H](OC)[C@@H](F)C4)n3)cc21 (single isomer, unassigned) [Example 325]",0.00177
5,"CCC(C)n1cc(C(=O)NC2CCN(C3COC3)CC2)c2cnc(Nc3ccnc(N4CC[C@@H](OC)[C@@H](F)C4)n3)cc21 (single isomer, unassigned) [Example 326]",0.00204
6,"CC[C@@H](C)n1cc(C(=O)NC2CCOCC2)c2cnc(Nc3ccnc(N4CC[C@H](OC)[C@H](F)C4)n3)cc21 (single isomer, unassigned) [Example 339]",0.00108
7,"CC[C@H](C)n1cc(C(=O)NC2CCOCC2)c2cnc(Nc3ccnc(N4CC[C@H](OC)[C@H](F)C4)n3)cc21 (single isomer, unassigned) [Example 340]",0.001
8,"CCNC(=O)c1cn(C(C)CC)c2cc(Nc3ccnc(N4CC[C@@H](O)[C@@H](F)C4)n3)ncc12 (single isomer, unassigned) [Example 370]",0.00136
9,"CCC(C)n1cc(C(=O)NC2CCOCC2)c2cnc(Nc3ccnc(N4CC[C@@H](OC)[C@@H](F)C4)n3)cc21 (single isomer, unassigned) [Example 375]",0.00107
10,"C[C@H](n1c([C@@H](C)O)nc2cnc(Nc3ccnc(N4CC[C@](C)(O)[C@H](F)C4)n3)cc21)C(F)(F)F (single isomer, unassigned) [Example 620, (3R*,4S*)-3-Fluoro-1-{4-[2-((R)-1-hydroxyethyl)-1-((S)-2,2,2-trifluoro-1-methylethyl)-1H-imidazo[4,5-c]pyridin-6-ylamino]pyrimidin-2-yl}-4-methylpiperidin-4-ol]",0.00413
11,"C[C@H](n1c([C@@H](C)O)nc2cnc(Nc3ccnc(N4CC[C@@](C)(O)[C@@H](F)C4)n3)cc21)C(F)(F)F (single isomer, unassigned) [Example 621, (3R*,4S*)-3-Fluoro-1-{4-[2-((R)-1-hydroxyethyl)-1-((S)-2,2,2-trifluoro-1-methylethyl)-1H-imidazo[4,5-c]pyridin-6-ylamino]pyrimidin-2-yl}-4-methylpiperidin-4-ol]",0.00518
12,"CC(n1cc(C(=O)NC2CCOCC2)c2cnc(Nc3ccnc(N4CC[C@@H](O)[C@@H](F)C4)n3)cc21)C(F)(F)F (single isomer, unassigned) [Example 639]",0.00227
13,"CC(n1cc(C(=O)NC2CCOCC2)c2cnc(Nc3ccnc(N4CC[C@@H](O)[C@@H](F)C4)n3)cc21)C(F)(F)F (single isomer, unassigned) [Example 640]",0.00323
14,"Cc1nc2cnc(Nc3ccnc(-n4cnc(C(C)O)c4)n3)cc2n1C(C)C (single isomer, unassigned) [Example 642, 1-(1-(4-((1-isopropyl-2-methyl-1H-imidazo[4,5-c]pyridin-6-yl)amino)pyrimidin-2-yl)-1H-imidazol-4-yl)ethanol]",0.11
15,"Cc1nc2cnc(Nc3ccnc(-n4cnc(C(C)O)c4)n3)cc2n1C(C)C (single isomer, unassigned) [Example 643, 1-(1-(4-((1-isopropyl-2-methyl-1H-imidazo[4,5-c]pyridin-6-yl)amino)pyrimidin-2-yl)-1H-imidazol-4-yl)ethanol]",0.098
16,"CCC(C)n1cc(C(=O)NC2CCOCC2)c2cnc(Nc3ccnc(-c4cnn(S(=O)(=O)C5CC5)c4)n3)cc21 (single isomer, unassigned; (+)) [Example 321, (+)-1-(sec-Butyl)-6-((2-(1-(cyclopropylsulfonyl)-1H-pyrazol-4-yl)pyrimidin-4-yl)amino)-N-(tetrahydro-2H-pyran-4-yl)-1H-pyrrolo[3,2-c]pyridine-3-carboxamide]",0.00096
